Test results: publication PMC11023938 (Nature, 2024)

Experiments:
[1] = tested on: bone marrow-derived neutrophils; assay: Neutrophil transwell migration; type: cell-based, mouse
Protocol: Bone marrow cells were flushed from femora and tibiae of C57BL/6 J mice (8- to 12-week-old) with HBSS without Ca^2+ and Mg^2+ containing 2% FBS and 1 mM EDTA. Cell suspension was passed through a 70-μm strainer. Next, EasySep Mouse Neutrophil Enrichment Kit or EasySep Mouse Monocyte Isolation Kit ([…] Technologies) was used to isolate neutrophils or monocytes according to the manufacturer’s instructions. Neutrophils were resuspended in RPMI containing 100 units ml^−1 penicillin/streptomycin and 10% FBS for cell migration assay and cell death assay or 2% FBS for efferocytosis. Monocytes were cultured in DMEM/F12 (Thermo Fisher Scientific) containing 10% FBS, 2–10 ng ml^−1 M-CSF (PeproTech) and 100 units ml^−1 penicillin/streptomycin for subsequent experiments. RAMP1 and CALCRL were detected on neutrophils and monocytes using rabbit anti-RAMP1 (8.5 μg ml^−1, Alomone Lab, ARR-021) and rabbit anti-calcitonin receptor-like receptor (5 μg ml^−1, Biorbyt, orb526584).
(§1) Assays were conducted using 6.5-mm-diameter culture plate inserts (Corning) with 5-μm and 3-μm pore sizes for macrophages and neutrophils, respectively. Macrophages (1 × 10^5) or neutrophils (3 × 10^5) in migration media (DMEM/F12 with 0.25% BSA) were added to the inserts. […] Cells were allowed to migrate through the insert membrane for 3-4 h at 37 °C with 5% CO2. For macrophages, the inserts were then fixed with 4% paraformaldehyde, and cells on the upper side were removed. DAPI (1 μg ml^−1) was used to stain cells on the bottom side, and they were counted using a fluorescent microscope. For neutrophils, cells that migrated into the lower chamber were collected and counted using a haemocytometer. The data are presented as the fold change, calculated by dividing the number of cells that migrated in response to treatments by the number of cells that migrated spontaneously (migration media only).

[2] = tested on: Human umbilical vein endothelial cells (HUVECs); assay: Proliferation assay (CyQUANT), endothelial cells; type: cell-based; conditions: for Proliferation assay, Endothelial cells: each grid row one replicate
Protocol: Human umbilical vein endothelial cells (HUVECs; Sigma, 200P-05N) cultured in EGM-2 medium (Lonza, CC-4176) up to 3 passages, and primary mouse fibroblasts from C57BL/6 J mouse tails[26] (passages 2–3) were used. MCDB-131 medium (Thermo Fisher Scientific) with 100 mg ml^−1 penicillin/streptomycin and 2 mM glutamine was employed for proliferation assays. C2C12 mouse myoblasts (CellBank Australia) were cultured in a 1:1 ratio of DMEM to F10 medium (2 mM glutamine, 10% FBS, 100 units ml^−1 penicillin/streptomycin). HaCaT keratinocytes (a gift from R. Boyd) were cultured in DMEM without Ca^2+ and Mg^2+ (2 nM glutamine, 10% Chelex-treated FBS, 0.03 nM calcium chloride, 100 units ml^−1 penicillin/streptomycin) for at least 3 passages. Cells obtained from vendors were authenticated and certified negative for Mycoplasma contamination. For proliferation assays, FBS was reduced to 2% or kept at 10% for 24 h. […] Incubation for 48 h (fibroblasts, C2C12) or 72 h (HUVECs, HaCaTs) at 37 °C with 5% CO2 followed. Proliferation was determined using the CyQUANT Cell Proliferation Assay (Invitrogen), presented as fold change over basal proliferation (medium only). PerkinElmer EnVision multi-mode plate reader with EnSpire Manager software was used.

[3] = tested on: bone marrow-derived macrophages; assay: Macrophage transwell migration; type: cell-based, mouse
Protocol: Bone marrow cells from 8- to 12-week-old C57BL/6 J mice were flushed, filtered and cultured in conditioned medium (DMEM/F12 with 10% heat-inactivated FBS, 100 units ml^−1 penicillin/streptomycin, and 20% L929 fibroblasts-conditioned medium) at 37 °C with 5% CO2. After 7–9 days, differentiated macrophages were collected and seeded in 12-well or 6-well plates. […] Macrophages were detached with TrypLE (Gibco) containing 3 mM EDTA, stained with LIVE/DEAD Aqua dye for 20 min on ice, and incubated with blocking solution (10 μg ml^−1 TruStain FcX anti-CD16/32 (clone 93, BioLegend)) for 20 min before staining with antibodies for 30 min on ice. Antibodies from BioLegend included PE anti-CD11b (clone M1/70, 1 μg ml^−1), BV711 anti-F4/80 (clone BM8, 2 μg ml^−1), APC anti-CD80 (clone 16-10A1, 0.5 μg ml^−1) and PE-Cyanine7 anti-CD206 (clone C068C2, 1 μg ml^−1). For intracellular staining, cells were fixed and permeabilized using FluoroFix Buffer and Intracellular Staining Permeabilization Wash Buffer (Perm buffer, BioLegend). APC anti-mouse arginase-1 (Thermo Fisher, Clone AlexF5, 1 μg ml^−1) was added to the Perm buffer and incubated with the cells for 30 min on ice. After washing with Perm buffer and staining buffer, cells were analysed using BD LSR Fortessa X-20 and FlowJo software (BD Biosciences).
as §1
Macrophages (4 × 10^5 cells per well in a 6-well plate) were transfected with 10 nM scrambled siRNA (Silencer Select Negative Control No. 1 siRNA, Thermo Fisher, 4390843) or Silencer Select Pre-Designed siRNA against mouse TSP-1 (Thermo Fisher, s124596) using Reduced-Serum Medium (Opti-MEM, Gibco) and Lipofectamine RNAiMAX (Invitrogen, 51985034) for 6 h. The medium was then replaced with fresh culture medium (DMEM/F12 with 10% FBS). After 24 h, cells were collected for the migration assay. […] After 24 h, cells were collected and co-cultured with dead or dying neutrophils. […]

C57BL/6 J mice [4] = assay: Hot plate test; type: in vivo, mouse; conditions: intraplantar 1 μg, hot plate 52 °C, 30 min to 48 h, n = 8
[5] = tested on: Nav1.8^cre/Rosa26^DTA mice; assay: Full-thickness skin wound model, nociceptor-ablated mice; type: in vivo, mouse; conditions: 1 μg (500 ng CGRP or equimolar eCGRP twice), topical, splinted wounds, D6 post-injury; compared with saline control
C57BL/6 J mice [6] = assay: Spontaneous pain behaviour assessment; type: in vivo, mouse; conditions: intraplantar 1 μg wild-type CGRP or equimolar eCGRP, right hind paw, over 48 h, n = 8
[7] = tested on: bone marrow-derived macrophages; assay: Macrophage cell death; type: cell-based, mouse; conditions: for macrophage death: CGRP 1 or 20 nM

**Q.** Which results are given for calcitonin gene-related peptide [CGRP]?
**A.** migration of Ramp1−/− neutrophils ([1]; CGRP 1 nM, with or without CXCL1): did not inhibit; neutrophil migration in the absence of chemokines ([1]; CGRP 1 or 20 nM): inhibited to some extent; neutrophil migration towards CXCL1 ([1]; CGRP 1 or 20 nM, CXCL1 150 ng ml−1, 3-4 h): severely inhibited; Proliferation assay, Endothelial cells ([2]; 1nM CGRP, medium 2% FBS): 1.24 and 1.11 and 1.09 and 1.02; Proliferation assay, Endothelial cells ([2]; 1nM CGRP, medium 10% FBS): 1.14 and 1.00 and 1.11 and 0.99 and 1.06; Proliferation assay, Endothelial cells ([2]; 20nM CGRP, medium 2% FBS): 1.17 and 1.00 and 1.05 and 1.02; Proliferation assay, Endothelial cells ([2]; 20nM CGRP, medium 10% FBS): 1.25 and 1.06 and 1.30 and 0.94 and 1.16 and 1.02; proliferation of endothelial cells ([2]; CGRP 1 or 20 nM, 2% or 10% FBS, 72 h): no significant effect; effect of CGRP on macrophage migration upon Thbs1 knockdown ([3]; CGRP 1 nM, Thbs1 siRNA 10 nM, towards CCL2): abolished; migration of Ramp1−/− macrophages ([3]; CGRP 1 nM, with or without CCL2): did not inhibit; macrophage migration in the absence of chemokines ([3]; CGRP 1 or 20 nM): inhibited to some extent; macrophage migration towards CCL2 ([3]; CGRP 1 or 20 nM, CCL2 10 ng ml−1, 3-4 h): severely inhibited; thermal sensitivity (C57BL/6 J mice [4]): transient and slight increase; extent of skin wound closure [5]: enhanced the extent; pain behaviours (C57BL/6 J mice [6]): did not elicit significant pain behaviours; effect of CGRP on macrophage death upon Thbs1 knockdown ([7]; CGRP 1 nM, Thbs1 siRNA 10 nM, with or without TNF/IL-1): abolished; macrophage death ([7]; in the presence of IL-1β and TNF): increased; macrophage death ([7]; without inflammatory cytokines or with cytokines that induce an M2-like polarization): did not promote

Values joined by “and” are separate entries in the source; they are usually repeats but may differ in a detail not shown here. Equal entries are not always repeated.
